The record followed here is ChEMBL document CHEMBL1127843, “2-(3,4-Dichlorophenyl)-N-methyl-N-[(1S)-1-(3-isothiocyanatophenyl)-2-(1-pyrrolidinyl)ethyl]acetamide: an opioid receptor affinity label that produces selective and long-lasting kappa antagonism in mice” (J Med Chem, 1994).

Chains of the proteins cited; added tags and fusions are not shown. Lines headed by an entry give the natural chain unless they say otherwise; changes in a name come on top.
UniProt P41144: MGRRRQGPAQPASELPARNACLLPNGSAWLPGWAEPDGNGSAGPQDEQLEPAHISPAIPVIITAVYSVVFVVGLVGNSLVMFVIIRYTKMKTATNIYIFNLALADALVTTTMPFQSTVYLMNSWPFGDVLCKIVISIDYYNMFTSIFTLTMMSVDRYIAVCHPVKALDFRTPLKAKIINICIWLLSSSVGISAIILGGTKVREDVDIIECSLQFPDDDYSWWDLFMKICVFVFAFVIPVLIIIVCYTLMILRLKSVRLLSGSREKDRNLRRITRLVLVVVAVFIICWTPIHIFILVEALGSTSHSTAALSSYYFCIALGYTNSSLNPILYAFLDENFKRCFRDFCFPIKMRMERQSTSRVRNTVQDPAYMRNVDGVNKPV

In this assay the target is Kappa-type opioid receptor (Cavia porcellus) (UniProt P41144). The assay is described as follows: Agonist potency of compound was evaluated towards kappa opioid receptor in absence of antagonist in guinea pig ileum(GPI).

The compound `CN(C(=O)Cc1ccc(Cl)c(Cl)c1)[C@H](CN1CCCC1)c1cccc(N=C=S)c1` returned a Ke of 0.3 nM.
